Data on two molecules can be found in ChEMBL document CHEMBL1124992, “(Pyrimidinyloxy)acetic acids and pyrimidineacetic acids as a novel class of aldose reductase inhibitors” (J Med Chem, 1990).

Experiment [1] addresses Aldo-keto reductase family 1 member B1 (Bos taurus) (UniProt P16116). As to the kind of experiment: In vitro inhibition of aldose reductase from the partially purified bovine lens at 10e-5 M concentration. The gist of the method:
(§1)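 Bovine lens aldose reductase, partially purified, assayed spectrophotometrically following Hayman and Kinoshita. Each compound was tested at three concentrations, routinely in duplicate.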

Experiment [2] has the same target. The experiment can be described thus: In vitro inhibition of aldose reductase from the partially purified bovine lens at 10e-6 M concentration. An outline of the steps: as §1
The target is the same in experiment [3]. As to the kind of experiment: In vitro inhibition of aldose reductase from the partially purified bovine lens at 10e-7 M concentration. An outline of the steps: as §1

As a reminder, the inhibition is the share of the control response that was lost under treatment. Read a high inhibition as strong suppression. Consider `CCCCCCSc1nc(C(C)(C)C)nc(OCC(=O)O)c1C#N`, for which the values for the inhibition in experiment [1], in experiment [2] and in experiment [3] were 94%, 94% and 91%, respectively.
Take `COc1ccc2c(C(=S)N(C)CC(=O)O)cccc2c1C(F)(F)F` [TOLRESTAT]: the inhibition in experiment [1] came to 98%.
